Only a part is listed here, and it is no random draw. Inconclusive results are not listed. Active and inactive are the calls of the source. Calls follow the shape of the dose curve; as a rule, active = well fitted activation curve with a large enough effect; inconclusive = small, poorly fitted or top-dose-only effect; inactive = no such curve, though single readings can be large or run the other way.
The molecules below were run against Rap guanine nucleotide exchange factor 4 (Homo sapiens) (UniProt Q8WZA2) (assay: Confirmatory qHTS for agonist of cAMP-regulated guanine nucleotide exchange factor 4 (EPAC2)). Conditions: EPAC2 GEF activity, Rap1B-BODIPY-GDP fluorescence, percent relative to cAMP agonist control; at 154 µM (top of the series).
% is scaled to controls: 0 for no effect and ±100 for the full control effect.
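Also: nucleotide exchange releases bodipy-GDP from Rap1 and this lowers its fluorescence; nearly all actives have a fitted effect of over 65% in size.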

The chains behind the UniProt entries cited, without tags or fusion partners.
UniProt Q8WZA2, whole entry: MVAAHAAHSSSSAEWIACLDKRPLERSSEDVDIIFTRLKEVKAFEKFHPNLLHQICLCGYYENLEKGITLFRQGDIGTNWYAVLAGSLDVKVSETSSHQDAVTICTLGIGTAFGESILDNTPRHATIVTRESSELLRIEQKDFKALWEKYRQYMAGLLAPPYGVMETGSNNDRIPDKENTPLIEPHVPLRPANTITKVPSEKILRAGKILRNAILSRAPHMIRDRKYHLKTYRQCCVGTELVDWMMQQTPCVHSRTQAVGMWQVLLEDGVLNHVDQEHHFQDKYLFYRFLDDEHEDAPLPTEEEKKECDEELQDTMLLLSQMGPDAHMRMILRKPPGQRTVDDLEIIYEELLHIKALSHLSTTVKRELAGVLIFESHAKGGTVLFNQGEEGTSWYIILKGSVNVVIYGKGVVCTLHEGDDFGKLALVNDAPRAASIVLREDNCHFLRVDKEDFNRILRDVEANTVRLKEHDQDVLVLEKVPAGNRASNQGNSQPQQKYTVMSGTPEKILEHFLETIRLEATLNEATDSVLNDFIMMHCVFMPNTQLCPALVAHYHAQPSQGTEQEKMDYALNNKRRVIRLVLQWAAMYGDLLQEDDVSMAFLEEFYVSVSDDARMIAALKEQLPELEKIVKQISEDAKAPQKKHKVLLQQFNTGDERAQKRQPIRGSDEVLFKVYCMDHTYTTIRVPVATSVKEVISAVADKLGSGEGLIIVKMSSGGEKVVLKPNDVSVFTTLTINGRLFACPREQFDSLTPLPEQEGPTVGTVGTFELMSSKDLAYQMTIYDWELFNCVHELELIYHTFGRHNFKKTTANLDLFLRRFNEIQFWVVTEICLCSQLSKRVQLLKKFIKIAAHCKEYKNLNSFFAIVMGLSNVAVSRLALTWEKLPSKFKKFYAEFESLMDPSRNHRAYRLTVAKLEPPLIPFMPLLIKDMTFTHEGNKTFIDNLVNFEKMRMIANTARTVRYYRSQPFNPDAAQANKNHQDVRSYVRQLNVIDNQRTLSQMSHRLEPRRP

Row | SMILES | activation
1 | CCCCn1nnnc1C(c1cc2ccccc2o1)N1CCC(n2c(=O)[nH]c3ccccc32)CC1 (stereo not drawn) | inactive: 4.89%
2 | CCC(c1nnnn1C(C)(C)C)N1CCC(n2c(=O)[nH]c3ccccc32)CC1 (stereo not drawn) | inactive: -25.7%
3 | O=c1[nH]c2ccccc2n1C1CCN(C(c2ccccc2OC(F)(F)F)c2nnnn2C2CCCC2)CC1 (stereo not drawn) | inactive: -25.5%

— PubChem BioAssay AID1645884 (National Center for Advancing Translational Sciences (NCATS), 2021)
